Like-named read-outs stand apart in the source and are kept apart here.
## Nc1nn(-c2ccc([N+](=O)[O-])cc2[N+](=O)[O-])c(N)c1N=Nc1cccc([N+](=O)[O-])c1
MCF-7 cells; MCF-7, 1 µg/ml
  Inhibitory %: 0%
  Viability %: 100%
MCF-7 cells; MCF-7, 2 µg/ml
  Inhibitory %: 0%
  Viability %: 100%
MCF-7 cells; MCF-7, 3.9 µg/ml
  Inhibitory %: 0%
  Viability %: 100%
MCF-7 cells; MCF-7, 7.8 µg/ml
  Inhibitory %: 0%
  Viability %: 100%
MCF-7 cells; MCF-7, 15.6 µg/ml
  Inhibitory %: 0%
  Viability %: 100%
MCF-7 cells; MCF-7, 31.25 µg/ml
  Inhibitory %: 0%
  Viability %: 100%
MCF-7 cells; MCF-7, 62.5 µg/ml
  Inhibitory %: 1.95%
  Viability %: 98.05%
MCF-7 cells; MCF-7, 125 µg/ml
  Inhibitory %: 17.24%
  Viability %: 82.76%
MCF-7 cells; MCF-7, 250 µg/ml
  Inhibitory %: 50.73%
  Viability %: 49.27%
MCF-7 cells; MCF-7, 500 µg/ml
  Inhibitory %: 81.21%
  Viability %: 18.79%
MDA-MB231 cells; 1.56 µM
  Average of Relative viability of cells (%) MDA-231: 100%
MDA-MB231 cells; 3.125 µM
  Average of Relative viability of cells (%) MDA-231: 100%
MDA-MB231 cells; 6.25 µM
  Average of Relative viability of cells (%) MDA-231: 100%
MDA-MB231 cells; 12.5 µM
  Average of Relative viability of cells (%) MDA-231: 85.2%
MDA-MB231 cells; 25 µM
  Average of Relative viability of cells (%) MDA-231: 71.1%
MDA-MB231 cells; 50 µM
  Average of Relative viability of cells (%) MDA-231: 59.8%
MDA-MB231 cells; 100 µM
  Average of Relative viability of cells (%) MDA-231: 40.7%

Source: publication PMC11510237, “New Pyrazole/Pyrimidine-Based Scaffolds as Inhibitors of Heat Shock Protein 90 Endowed with Apoptotic Anti-Breast Cancer Activity” (2024)
